Test results from article PMC7612964.

Chains of the proteins cited; added tags and fusions are not shown.
UniProt P28347, whole entry: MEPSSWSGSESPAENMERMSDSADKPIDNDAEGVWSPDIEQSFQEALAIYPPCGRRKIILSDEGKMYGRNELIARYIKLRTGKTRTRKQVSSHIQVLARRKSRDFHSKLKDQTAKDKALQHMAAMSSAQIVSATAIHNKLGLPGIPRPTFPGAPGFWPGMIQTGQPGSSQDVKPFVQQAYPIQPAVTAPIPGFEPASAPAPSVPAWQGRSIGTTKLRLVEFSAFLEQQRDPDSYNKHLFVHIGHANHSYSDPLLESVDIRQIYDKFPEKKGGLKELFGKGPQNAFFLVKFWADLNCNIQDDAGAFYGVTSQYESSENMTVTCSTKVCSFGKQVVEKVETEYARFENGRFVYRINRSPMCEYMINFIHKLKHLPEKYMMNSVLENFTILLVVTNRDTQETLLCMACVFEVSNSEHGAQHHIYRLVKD

Biological target: endogenous TEAD1 (human (endogenous in MCF10AT, MCF10A)) (UniProt P28347)
Assay: proximity ligation

NLS-YAP (natural protein)
% PLA-positive cells (C3, ARID1A depleted): 43.4% | % PLA-positive cells (High mechanics): 46.3% | % PLA-positive cells (Lat.A, ARID1A depleted): 48.5% | % PLA-positive cells (anti-integrin antibodies, ARID1A depleted): 67% | % PLA-positive cells (small adhesive area, ARID1A depleted): 44% | % PLA-positive cells (soft ECM, ARID1A depleted): 49.8%
